# Values of other authors in patent US20250340667A1, “Cancer Treatment comprising an anti-MSLN/CD137 antibody and a chemotherapeutic” (Merck Patent GmbH, priority 2022, published 2025).
# The chains behind the UniProt entries cited, without tags or fusion partners. Residues count along the entry.
# UniProt Q07011, 24-255: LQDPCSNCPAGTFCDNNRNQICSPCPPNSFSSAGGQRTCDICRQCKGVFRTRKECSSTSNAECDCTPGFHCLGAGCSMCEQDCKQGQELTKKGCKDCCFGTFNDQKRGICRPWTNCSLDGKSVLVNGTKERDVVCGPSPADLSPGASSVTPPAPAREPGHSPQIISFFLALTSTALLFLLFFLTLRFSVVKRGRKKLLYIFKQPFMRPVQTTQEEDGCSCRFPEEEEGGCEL
# Molecular target: T1, CD137 (Homo sapiens, UniProt Q07011)
# T1 construct: Clinical studies of both utomilumab and urelumab monotherapy were however suspended; host or cells: patients (endogenous CD137)
# Conditions: monotherapy clinical studies, suspended; cited from earlier work
substance,measurement,value
utomilumab: 1st generation CD137 agonist antibody,clinical efficacy,low efficacy
